{"source": "patent US20070264672A1", "about": "“DEVELOPMENT OF A NOVEL ASSAY FOR MGMT (METHYL GUANINE METHYL TRANSFERASE)” (priority 2006, published 2007)", "origin": "cited, not measured here", "system": "human carcinoma HT-29 cell line", "conditions": "combined with BCNU"}
{"compound": "CN(N=O)C(=O)N[C@H]1C(O)O[C@H](CO)[C@@H](O)[C@@H]1O", "note": "(mixture of isomers) [streptozotocin]", "values": [{"measurement": "potentiation of BCNU-induced cytotoxicity over that observed with BCNU alone", "value": "three logs"}]}
